Screening results from PubChem.
A selection: hits, their analogues and other compounds. The true share with any hit is near 16%.
uPA surface inh – cell surface uPA generation inhibition; AID 540303; cell surface uPA generation assay, qHTS; Potency, µM (series often up to 38.3 µM), for inactives: at the highest dose activity change, negative = inhibition, actives largely listed as inhibitors; 0.31% of 330,000 active; active = well fitted inhibition curve with a large enough effect; inconclusive = small, poorly fitted or top-dose-only effect; inactive = no such curve, though single readings can be large or run the other way; tested in mouse RAW 264.7 cells; note: potency is the fitted concentration of half-maximal effect; % is set by controls: 0 for no effect and ±100 for the full control effect; nearly all actives have a fitted effect of over 55% in size
DT40 TDP1 no CPT – qHTS for Inhibitors of human tyrosyl-DNA phosphodiesterase 1 (TDP1): qHTS in cells in absence of CPT | 15% of 420,000 active | Potency, µM (series often up to 46.2 µM), without a hit: top-dose activity change, negative = growth inhibition, usual class: inhibitors | DT40 Tdp1-/- hTDP1 cells, no CPT, ATP luminescence, 48 h; note: potency is the fitted concentration of half-maximal effect; % is set by controls: 0 for no effect and ±100 for the full control effect; nearly all actives have a fitted effect of over 55% in size
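Cells were dispensed at 400 per well, compounds added by pin tool, plates incubated ≥48 hr at 37 °C, then CellTiter-Glo added for 30 min at room temperature before luminescence reading. Line: DT40 Tdp1-/- complemented with hTDP1; camptothecin omitted.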
TDP1 block – TDP1 (human) enzyme inhibition | 0.28% of 350,000 active | Potency, µM (titrated, usually from 130 µM), without a hit: at the highest dose activity change, negative = inhibition, hits mostly inhibitors | recombinant TDP1, AlphaScreen DNA substrate cleavage | Q9NUW8; note: potency is the fitted concentration of half-maximal effect; % is set by controls: 0 for no effect and ±100 for the full control effect; nearly all actives have a fitted effect of over 40% in size
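E. coli-derived human Tdp1, 1 nM final. Cpd preinc 15 min RT; substrate 15 nM final, 5 min RT; AS bead mix 10 ug/ml final, 10 min RT. Signal loss = tyrosine-FITC cleavage. No-enzyme wells = max signal.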
DT40 TDP1 CPT – DT40-hTDP1 cell growth loss with CPT; 12% of 420,000 active; chicken DT40 Tdp1-/-;hTDP1 cells + 20 nM CPT, ATP luminescence, 48 h; Potency, µM (series often up to 46.2 µM), for inactives: at the highest dose activity change, negative = growth inhibition, most hits filed as inhibitors; note: potency is the fitted concentration of half-maximal effect; % is set by controls: 0 for no effect and ±100 for the full control effect; nearly all actives have a fitted effect of over 55% in size
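Cell growth measured by CellTiter-Glo luminescence after a minimum 48 h, 37 C compound exposure with 20 nM CPT in Tdp1-knockout DT40 cells stably expressing hTDP1, seeded 400/well; qHTS titration format.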
miR-21 FLuc – raises the signal of a miR-21 reporter | HeLa miR-21 FLuc reporter, luciferase, 48 h | Potency, µM (doses to about 38.3 µM), without a hit: at the top dose reporter change, positive = more light | 340,000 tested, under 10 active | AID 2288; active = well fitted rising curve with a large enough effect; inconclusive = small, poorly fitted or top-dose-only effect; inactive = no such curve, though single readings can be large or run the other way;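 note: % of control where 0% means no effect; miR-21 action dims this reporter so a rising signal means less miR-21 action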
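HeLa cells endogenously expressing miR-21, stably carrying CMV-driven firefly luciferase with a downstream miR-21 binding site, 2000 cells/well. Titrations up to approximately 40 uM, 48 hours; luciferase luminescence read.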
Numbers without * were called inactive; [ ] = remark or other dose. Unless noted, calls come from the whole dose curve; as a rule, active = well fitted curve in the direction sought with a large enough effect; inconclusive = small, poorly fitted or top-dose-only effect, or another doubt; inactive = no such curve, though single readings can be large; an effect the other way counts as inactive or inconclusive.

Results for CCOC(=O)c1sc(N2C(=O)C(O)=C(C(=O)c3ccc(C)o3)C2c2ccc(OC)c(OC)c2)nc1C (stereo not drawn) ?
uPA surface inh: 1%; DT40 TDP1 no CPT: inconclusive; TDP1 block: 2%; DT40 TDP1 CPT: 23µM*; miR-21 FLuc: -5%

What do the screens show for `COc1cccc(C2C(C(=O)c3ccc(C)o3)=C(O)C(=O)N2c2cc(C)on2)c1` (stereo not drawn)?
uPA surface inh: -5%; DT40 TDP1 no CPT: inconclusive; TDP1 block: 5%; DT40 TDP1 CPT: 23µM*; miR-21 FLuc: -2%

How did CCOC(=O)c1sc(N2C(=O)C(O)=C(C(=O)c3ccc(C)o3)C2c2cccc([N+](=O)[O-])c2)nc1C (stereo not drawn) do in these assays?
uPA surface inh: -15%; DT40 TDP1 no CPT: inconclusive; TDP1 block: 8%; DT40 TDP1 CPT: -9%; miR-21 FLuc: -10%

How did O=C(Nc1nnc2n1CCS2)c1ccco1 do in these assays?
uPA surface inh: 2%; DT40 TDP1 no CPT: -12%; TDP1 block: 1%; DT40 TDP1 CPT: 2%; miR-21 FLuc: 9%

Results for Cc1nn2c(c1-c1ccccc1)NC1=C(C(=O)CCC1)C2c1ccccc1 (stereo not drawn) ?
DT40 TDP1 no CPT: -14%; TDP1 block: -5%; DT40 TDP1 CPT: -3%; miR-21 FLuc: 0%

Results for CC(O)(c1ccccc1)c1nc(-c2cc3ccccc3o2)cs1 (stereo not drawn) ?
DT40 TDP1 no CPT: 13µM*; DT40 TDP1 CPT: 23µM*

Results for CN(C)c1ccc(-c2csc(C(C)(O)c3ccccc3)n2)cc1 (stereo not drawn) ?
DT40 TDP1 no CPT: 16µM*; DT40 TDP1 CPT: 15µM*

What do the screens show for `O=C(CSCc1cc(=O)c2ccccc2[nH]1)Nc1cccc(C(F)(F)F)c1`?
DT40 TDP1 no CPT: inconclusive; TDP1 block: 0%; DT40 TDP1 CPT: -25%; miR-21 FLuc: -7%

Results for COC(=O)c1c(SCC(=O)Nc2cccc(C(F)(F)F)c2)[nH]c2ccccc2c1=O ?
DT40 TDP1 no CPT: 5.8µM*; TDP1 block: 3%; DT40 TDP1 CPT: 5.8µM*; miR-21 FLuc: 23%

What do the screens show for `COC(=O)c1c(SCC(=O)Nc2cccc(Cl)c2C)[nH]c2ccccc2c1=O`?
DT40 TDP1 no CPT: inconclusive; TDP1 block: 3%; DT40 TDP1 CPT: 23µM*; miR-21 FLuc: 7%

What do the screens show for `COC(=O)c1c(SCC(=O)NC2CCCCC2)[nH]c2ccccc2c1=O`?
uPA surface inh: 2%; DT40 TDP1 no CPT: inconclusive; DT40 TDP1 CPT: 14%; miR-21 FLuc: 2%

Results for COC(=O)c1c(SCC(=O)Nc2cc(F)ccc2F)[nH]c2ccc(C)cc2c1=O ?
DT40 TDP1 no CPT: 8.2µM*; TDP1 block: 3%; DT40 TDP1 CPT: 8.2µM*; miR-21 FLuc: -23%

How did CCCCc1ccc(NS(=O)(=O)N(C)C)cc1 do in these assays?
uPA surface inh: 3%; DT40 TDP1 no CPT: -10%; TDP1 block: 5%; DT40 TDP1 CPT: -27%; miR-21 FLuc: -17%

What do the screens show for `CN(C)CCCNC(=O)c1ccccc1Oc1ccccc1`?
uPA surface inh: -3%; DT40 TDP1 no CPT: 15%; TDP1 block: 4%; DT40 TDP1 CPT: 2%; miR-21 FLuc: -19%

Results for Cc1cccc(C)c1NC(=O)CSc1nnnn1-c1ccc(C(=O)O)cc1 ?
uPA surface inh: -1%; DT40 TDP1 no CPT: -2%; TDP1 block: 3%; DT40 TDP1 CPT: -4%; miR-21 FLuc: -2%

How did CCc1cc(=O)oc2c3c(c(Cl)cc12)OCN(Cc1cccc(OC)c1)C3 do in these assays?
DT40 TDP1 no CPT: -19%; TDP1 block: 5%; DT40 TDP1 CPT: -24%; miR-21 FLuc: 0%

Results for Cc1sc(C(C2C(=O)CC(C)(C)CC2=O)C2C(=O)CC(C)(C)CC2=O)cc1[N+](=O)[O-] ?
uPA surface inh: -3%; DT40 TDP1 no CPT: 23µM*; TDP1 block: 10%; DT40 TDP1 CPT: inconclusive; miR-21 FLuc: -1%

How did CC1(C)CC(=O)C(C(c2cc([N+](=O)[O-])ccc2Cl)C2C(=O)CC(C)(C)CC2=O)C(=O)C1 do in these assays?
uPA surface inh: -4%; DT40 TDP1 no CPT: 5.8µM*; DT40 TDP1 CPT: inconclusive

Results for Cc1ccc(-n2c(-c3ccccc3)nnc2-c2cccs2)cc1 ?
uPA surface inh: -5%; DT40 TDP1 no CPT: -6%; TDP1 block: -3%; DT40 TDP1 CPT: inconclusive; miR-21 FLuc: -9%

What do the screens show for `CCOc1cc(/C=N/NC(=O)NN(C)c2ncc(C(F)(F)F)cc2Cl)ccc1O`?
uPA surface inh: 6%; DT40 TDP1 no CPT: inconclusive; TDP1 block: 3%; DT40 TDP1 CPT: inconclusive; miR-21 FLuc: 14%

What do the screens show for `COc1ccc(Br)c2c1-c1nc(NC(=O)c3ccccc3SC)sc1C2`?
DT40 TDP1 no CPT: inconclusive; TDP1 block: 0%; DT40 TDP1 CPT: inconclusive; miR-21 FLuc: -5%

What do the screens show for `COc1cc(C(=O)Nc2nc3c(s2)Cc2c(Br)ccc(OC)c2-3)cc(OC)c1OC`?
DT40 TDP1 no CPT: 15µM*; TDP1 block: 3%; DT40 TDP1 CPT: 15µM*; miR-21 FLuc: 2%

Results for COc1ccc(Br)c2c1-c1nc(NC(=O)c3ccccc3F)sc1C2 ?
DT40 TDP1 no CPT: 18µM*; TDP1 block: 5%; DT40 TDP1 CPT: 21µM*; miR-21 FLuc: -11%

How did C#C[C@]1(O)CC[C@@H]2[C@H]3CCC4=Cc5oncc5C[C@]4(C)[C@@H]3CC[C@@]21C do in these assays?
TDP1 block: 14%[21 µM]

A draw from above in order of count of non-hydrogen atoms, lowest first:
What do the screens show for `CN(C)CCCNC(=O)c1ccccc1Oc1ccccc1`?
uPA surface inh: -3%; DT40 TDP1 no CPT: 15%; TDP1 block: 4%; DT40 TDP1 CPT: 2%; miR-21 FLuc: -19%

What do the screens show for `CCOc1cc(/C=N/NC(=O)NN(C)c2ncc(C(F)(F)F)cc2Cl)ccc1O`?
uPA surface inh: 6%; DT40 TDP1 no CPT: inconclusive; TDP1 block: 3%; DT40 TDP1 CPT: inconclusive; miR-21 FLuc: 14%

How did CC1(C)CC(=O)C(C(c2cc([N+](=O)[O-])ccc2Cl)C2C(=O)CC(C)(C)CC2=O)C(=O)C1 do in these assays?
uPA surface inh: -4%; DT40 TDP1 no CPT: 5.8µM*; DT40 TDP1 CPT: inconclusive

(continued)
Results for COCCCNc1nc2nonc2nc1N1CCN(Cc2cccc(C)c2)CC1 ?
uPA surface inh: 1%; DT40 TDP1 no CPT: inconclusive; DT40 TDP1 CPT: inconclusive; miR-21 FLuc: 0%

How did Fc1cccc(CN2CCN(c3nc4nonc4nc3NC3CC3)CC2)c1 do in these assays?
uPA surface inh: 11%; DT40 TDP1 no CPT: 23µM*; TDP1 block: 8%; DT40 TDP1 CPT: -26%; miR-21 FLuc: 1%

How did CN(C)c1nc(N)nc(Cn2ccnc2)n1 do in these assays?
uPA surface inh: 6%; DT40 TDP1 no CPT: -2%; TDP1 block: 7%; DT40 TDP1 CPT: 4%; miR-21 FLuc: 0%

How did Cc1ccccc1NC(=O)C1C2CCCC1C2c1ccccc1 (stereo not drawn) do in these assays?
uPA surface inh: 10%; DT40 TDP1 no CPT: inconclusive; TDP1 block: 4%; DT40 TDP1 CPT: 18µM*; miR-21 FLuc: -3%

How did CCOc1ccc(NC(=O)C2Cc3ccccc3N2C(=O)c2ccccc2)cc1 (stereo not drawn) do in these assays?
DT40 TDP1 no CPT: 21µM*; TDP1 block: 1%; DT40 TDP1 CPT: 23µM*; miR-21 FLuc: 0%

Molecules listed so far containing a thiophene ring, fused or not:
Results for Cc1sc(C(C2C(=O)CC(C)(C)CC2=O)C2C(=O)CC(C)(C)CC2=O)cc1[N+](=O)[O-] ?
uPA surface inh: -3%; DT40 TDP1 no CPT: 23µM*; TDP1 block: 10%; DT40 TDP1 CPT: inconclusive; miR-21 FLuc: -1%

Results for Cc1ccc(-n2c(-c3ccccc3)nnc2-c2cccs2)cc1 ?
uPA surface inh: -5%; DT40 TDP1 no CPT: -6%; TDP1 block: -3%; DT40 TDP1 CPT: inconclusive; miR-21 FLuc: -9%
